{"sequences": {"note": "Sequences of proteins named here, by UniProt entry; tags and fusion partners are left off.", "UniProt P43351, whole entry": "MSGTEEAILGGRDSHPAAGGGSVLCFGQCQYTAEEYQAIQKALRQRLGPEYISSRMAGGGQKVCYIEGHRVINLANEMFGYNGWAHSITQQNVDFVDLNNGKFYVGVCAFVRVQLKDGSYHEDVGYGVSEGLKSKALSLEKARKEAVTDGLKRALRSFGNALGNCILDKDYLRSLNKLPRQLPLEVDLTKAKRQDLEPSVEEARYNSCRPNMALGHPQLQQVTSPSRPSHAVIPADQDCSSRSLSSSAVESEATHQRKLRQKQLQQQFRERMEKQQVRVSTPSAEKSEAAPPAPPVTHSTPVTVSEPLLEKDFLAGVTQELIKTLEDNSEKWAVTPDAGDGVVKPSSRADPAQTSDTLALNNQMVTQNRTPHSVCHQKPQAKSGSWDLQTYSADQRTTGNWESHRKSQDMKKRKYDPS"}, "source": "PubChem BioAssay AID651710", "about": "(Broad Institute, 2012)", "note": "Only a part is listed here, and it is no random draw. Calls of active or inactive are those of the source.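 How the source made its calls: active means every replicate showing at least 50% inhibition; inconclusive means mean inhibition at least 50% but not in every replicate; inactive means the rest.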", "data": [{"molecular_target": "DNA repair protein RAD52 homolog (Homo sapiens) (UniProt P43351)", "test": "blockers of RAD52 strand annealing activity – biochemical, FRET, single point, set 2, primary screen (AID 651710)", "settings": "recombinant RAD52 DNA annealing, FRET fluorescence; at 18.7 µM; stronger effect = higher value", "values": [{"compound": "Cc1cc(N(CCCl)CCCl)ccc1C=O", "inhibition": "inactive: -11.3%"}, {"compound": "CCCN1CCC(Nc2cc(OC)cc(OC)c2)CC1", "inhibition": "inactive: -36.6%"}, {"compound": "O=c1[nH]c2ccccc2n1C1CCN(C(c2ccccc2)c2nnnn2C2CCCC2)CC1", "note": "(configuration not stated)", "inhibition": "inactive: -16.6%"}, {"compound": "C/C(N)=N\\P(=O)(Oc1ccccc1)Oc1ccccc1", "inhibition": "inactive: -8.66%"}, {"compound": "CN(C)C1(CNC(=O)c2cccc(C#N)c2)CCCCC1", "inhibition": "inactive: -10.2%"}, {"compound": "CC(C)(C)n1nnnc1C(c1cccc2ccccc12)N1CCC(n2c(=O)[nH]c3ccccc32)CC1", "note": "(configuration not stated)", "inhibition": "inactive: -6.39%"}, {"compound": "O=C(NCC1(N2CCOCC2)CCCCC1)c1cc(Br)ccc1Cl", "inhibition": "inactive: -22.5%"}, {"compound": "COc1cc(C(=O)NCC2(N3CCOCC3)CCCCC2)cc(OC)c1C", "inhibition": "inactive: -0.019%"}, {"compound": "CCCCn1nnnc1C(c1ccccc1)N1CCC(n2c(=O)[nH]c3ccccc32)CC1", "note": "(configuration not stated)", "inhibition": "inactive: -3.76%"}, {"compound": "O=c1[nH]c2ccccc2n1C1CCN(C(c2ccnc3ccccc23)c2nnnn2C2CCCC2)CC1", "note": "(configuration not stated)", "inhibition": "inactive: -24.7%"}, {"compound": "COc1ccc(C(=O)NCC2(N3CCOCC3)CCCCC2)cc1OC", "inhibition": "inactive: -18.5%"}, {"compound": "O=c1[nH]c2ccccc2n1C1CCN(C(c2cccs2)c2nnnn2C2CCCCC2)CC1", "note": "(configuration not stated)", "inhibition": "inactive: -2.29%"}, {"compound": "CCOC(=O)N1CCC(Nc2ccc(C)cc2)CC1", "inhibition": "inactive: -3.18%"}, {"compound": "COc1cccc(C(c2nnnn2C(C)(C)C)N2CCC(n3c(=O)[nH]c4ccccc43)CC2)c1OC", "note": "(configuration not stated)", "inhibition": "inactive: -16.6%"}, {"compound": "CCCCn1nnnc1C(c1cccc(OC)c1OC)N1CCC(n2c(=O)[nH]c3ccccc32)CC1", "note": "(configuration not stated)", "inhibition": "inactive: 4.31%"}, {"compound": "O=c1[nH]c2ccccc2n1C1CCN(C(c2cccs2)c2nnnn2C2CCCC2)CC1", "note": "(configuration not stated)", "inhibition": "inactive: -10.4%"}, {"compound": "CN(C)c1cccc(C(=O)NCC2(N3CCCCC3)CCCCC2)c1", "inhibition": "inactive: -4.11%"}, {"compound": "COc1ccc(CN(CCCl)CCCl)cc1Cl", "inhibition": "inactive: 0.137%"}, {"compound": "CC(C)c1ccc(NC2CCN(C(=O)OC(C)(C)C)CC2)cc1", "inhibition": "inactive: -4.58%"}, {"compound": "CCCCn1nnnc1C(c1ccnc2ccccc12)N1CCC(n2c(=O)[nH]c3ccccc32)CC1", "note": "(configuration not stated)", "inhibition": "inactive: -9.02%"}, {"compound": "O=C(NCC1(N2CCOCC2)CCCCC1)c1cc(F)c(F)cc1Cl", "inhibition": "inactive: -24%"}, {"compound": "CCC(c1nnnn1C(C)(C)C)N1CCC(n2c(=O)[nH]c3ccccc32)CC1", "note": "(configuration not stated)", "inhibition": "inactive: -3.17%"}, {"compound": "COc1cc(OC)c(C(=O)NCC2(N(C)C)CCCCC2)cc1OC", "inhibition": "inactive: 2.24%"}, {"compound": "CN1CCC(Nc2cccc(F)c2)CC1", "inhibition": "inactive: -11.1%"}, {"compound": "O=C(NCC1(N2CCCCC2)CCCCC1)c1cncc(Br)c1", "inhibition": "inactive: -9.41%"}, {"compound": "CCCOc1ccc(C(=O)NCC2(N(C)C)CCCCC2)cc1OC", "inhibition": "inactive: -6.65%"}, {"compound": "Cc1ccc(C(=O)NCC2(N(C)C)CCCCC2)o1", "inhibition": "inactive: 15.2%"}, {"compound": "COc1ccc(C(c2nnnn2C2CCCC2)N2CCC(n3c(=O)[nH]c4ccccc43)CC2)cc1", "note": "(configuration not stated)", "inhibition": "inactive: 10.2%"}, {"compound": "O=C(NCC1(N2CCCCC2)CCCCC1)c1ccc(OC(F)F)cc1", "inhibition": "inactive: -55.2%"}, {"compound": "CC(C)(C)n1nnnc1C(c1ccccc1OC(F)(F)F)N1CCC(n2c(=O)[nH]c3ccccc32)CC1", "note": "(configuration not stated)", "inhibition": "inactive: -17.3%"}, {"compound": "O=C(NCC1(N2CCCCC2)CCCCC1)c1cccc([N+](=O)[O-])c1", "inhibition": "inactive: -4.3%"}, {"compound": "CSc1ccc(C(=O)NCC2(N3CCOCC3)CCCCC2)cc1", "inhibition": "inactive: -24.1%"}, {"compound": "O=c1[nH]c2ccccc2n1C1CCN(C(c2ccccc2OC(F)(F)F)c2nnnn2C2CCCC2)CC1", "note": "(configuration not stated)", "inhibition": "inactive: -10.1%"}, {"compound": "CCN1CCC(Nc2ccc(Cl)cc2)CC1", "inhibition": "inactive: -8.97%"}, {"compound": "O=C(NCC1(N2CCCCC2)CCCCC1)c1cccc(C(F)(F)F)c1", "inhibition": "inactive: -6.16%"}, {"compound": "CC(C)c1ccc(C(=O)NCC2(N3CCOCC3)CCCCC2)cc1", "inhibition": "inactive: -13.6%"}, {"compound": "COc1ccc(NC2CCN(C(=O)OC(C)(C)C)CC2)cc1", "inhibition": "inactive: 5.57%"}, {"compound": "CN1CCN(CCOC(=O)C(O)(c2ccccc2)c2ccccc2)CC1", "inhibition": "inactive: -26.6%"}, {"compound": "CCCCn1nnnc1C(c1cccc2ccccc12)N1CCC(n2c(=O)[nH]c3ccccc32)CC1", "note": "(configuration not stated)", "inhibition": "inactive: -13.2%"}, {"compound": "COc1cc(C(=O)NCC2(N3CCCCC3)CCCCC2)ccc1OC(F)F", "inhibition": "inactive: -26.2%"}, {"compound": "CCOc1ccc(C)cc1CN(CCCl)CCCl", "inhibition": "inactive: 23.4%"}, {"compound": "O=C1CCN(Cc2ccccc2)CC1", "inhibition": "inactive: -31%"}, {"compound": "CC(C)(C)n1nnnc1C(c1ccccc1)N1CCC(n2c(=O)[nH]c3ccccc32)CC1", "note": "(configuration not stated)", "inhibition": "inactive: 4.64%"}, {"compound": "CCOC(=O)N1CCC(Nc2ccc(F)cc2)CC1", "inhibition": "inactive: 3.1%"}, {"compound": "CCCCOc1ccc(C(=O)NCC2(N3CCOCC3)CCCCC2)cc1", "inhibition": "inactive: -13.9%"}, {"compound": "CCCCn1nnnc1C(c1cc2ccccc2o1)N1CCC(n2c(=O)[nH]c3ccccc32)CC1", "note": "(configuration not stated)", "inhibition": "inactive: -139%"}, {"compound": "O=P1(N(CCCl)CCCl)SCCCS1", "inhibition": "inactive: -9.56%"}, {"compound": "O=C(NCC1(N2CCCCC2)CCCCC1)c1ccc(F)cc1", "inhibition": "inactive: -7.34%"}, {"compound": "O=c1[nH]c2ccccc2n1C1CCN(C(c2ccccc2)c2nnnn2C2CCCCC2)CC1", "note": "(configuration not stated)", "inhibition": "inactive: -5.87%"}, {"compound": "O=c1[nH]c2ccccc2n1C1CCN(C(c2cccc3ccccc23)c2nnnn2C2CCCC2)CC1", "note": "(configuration not stated)", "inhibition": "inactive: -9.12%"}, {"compound": "CCOC(=O)N1CCC(Nc2cccc(C)c2)CC1", "inhibition": "inactive: -20.1%"}, {"compound": "COc1cc(C(=O)NCC2(N(C)C)CCCCC2)ccc1OC(F)F", "inhibition": "inactive: -0.993%"}, {"compound": "O=C(NCC1(N2CCCCC2)CCCCC1)c1cccs1", "inhibition": "inactive: -2.9%"}, {"compound": "CCCCn1nnnc1C(CC)N1CCC(n2c(=O)[nH]c3ccccc32)CC1", "note": "(configuration not stated)", "inhibition": "inactive: -3.23%"}, {"compound": "CCCCn1nnnc1C(c1cccs1)N1CCC(n2c(=O)[nH]c3ccccc32)CC1", "note": "(configuration not stated)", "inhibition": "inactive: -1.54%"}, {"compound": "O=C(NCC1(N2CCCCC2)CCCCC1)c1ccc(=O)[nH]c1", "inhibition": "inactive: -15.7%"}, {"compound": "CC(C)(C)OC(=O)N1CCC(N(C(=O)c2ccccc2)c2ccc(F)cc2)CC1", "inhibition": "inactive: -4.74%"}, {"compound": "COc1ccc(C(=O)NCC2(N3CCCCC3)CCCCC2)c(OC)c1OC", "inhibition": "inactive: -55.8%"}, {"compound": "CCC(c1nnnn1C1CCCC1)N1CCC(n2c(=O)[nH]c3ccccc32)CC1", "note": "(configuration not stated)", "inhibition": "inactive: -25%"}, {"compound": "COc1ccc(C(=O)NCC2(N3CCCCC3)CCCCC2)cc1", "inhibition": "inactive: -13.7%"}, {"compound": "Cc1cccc(NC2(C#N)CCN(Cc3ccccc3)CC2)c1", "inhibition": "inactive: -11.9%"}, {"compound": "CSc1ccccc1C(=O)NCC1(N2CCCCC2)CCCCC1", "inhibition": "inactive: -9.92%"}, {"compound": "Cc1cc(C)cc(N(C(=O)c2ccccc2)C2CCN(C(=O)OC(C)(C)C)CC2)c1", "inhibition": "inactive: 7.28%"}, {"compound": "O=C(NCC1(N2CCCCC2)CCCCC1)c1ccc(Cl)nc1", "inhibition": "inactive: -80.3%"}, {"compound": "O=c1[nH]c2ccccc2n1C1CCN(C(c2ccccc2OC(F)(F)F)c2nnnn2C2CCCCC2)CC1", "note": "(configuration not stated)", "inhibition": "inactive: -12.7%"}, {"compound": "CCCCn1nnnc1C(c1ccc(OC)cc1)N1CCC(n2c(=O)[nH]c3ccccc32)CC1", "note": "(configuration not stated)", "inhibition": "inactive: 6.33%"}, {"compound": "CCOC(=O)N1CCC(Nc2ccc(OC)cc2)CC1", "inhibition": "inactive: -11.2%"}, {"compound": "COc1ccc(Cl)cc1C(=O)NCC1(N2CCOCC2)CCCCC1", "inhibition": "inactive: 4.11%"}, {"compound": "O=C(NCC1(N2CCCCC2)CCCCC1)c1ccc(Cl)s1", "inhibition": "inactive: -16.5%"}, {"compound": "N#CC1(Nc2ccccc2)CCN(Cc2ccccc2)CC1", "inhibition": "inactive: -5.88%"}, {"compound": "O=c1[nH]c2ccccc2n1C1CCN(C(c2cc3ccccc3o2)c2nnnn2C2CCCCC2)CC1", "note": "(configuration not stated)", "inhibition": "inactive: -20.4%"}, {"compound": "O=C(OC1CN2CCC1CC2)C1c2ccccc2Oc2ccccc21", "note": "(configuration not stated)", "inhibition": "inactive: 0.532%"}]}]}
